Source: PubChem BioAssay (NCI)
The list shows a part of the results, in another mix than the full data. More than one record can exist for a structure, and the calls need not agree. Calls of active or inactive are those of the source. Rule as the data show it: active = growth inhibition above about 70%; inactive = the rest.

Test: NCI Yeast Anticancer Drug Screen. Data for the mlh1 strain (AID 171);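 also: 0% = growth of vehicle-treated control cultures of the same strain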
Conditions: S. cerevisiae mlh1 strain growth inhibition, stronger effect = higher value
Procedure: Growth inhibition of yeast strains with defined genetic alterations is measured as a screen for potential anti-cancer activity. Selected strains with alterations in DNA damage repair or cell cycle control were exposed to compounds and growth inhibition was measured relative to vehicle treated controls. The strain used in this assay is mlh1

For CN(C)P(=O)(N(C)C)n1c(Nc2ccccc2)nnc1-c1ccccc1, which growth inhibition (at 1.2 µM) is on record?
The growth inhibition was inactive: -24%.

What about the growth inhibition (at 3.7 µM) of the same molecule?
Its growth inhibition is inactive: -2%.

What about the growth inhibition (at 11.0 µM) of the same molecule?
The growth inhibition was inactive: -12%.

What about the growth inhibition (at 33.0 µM) of the same molecule?
The growth inhibition was active: 94%.

What about the growth inhibition (at 100.0 µM) of the same molecule?
The growth inhibition was inactive: 33%.

What does the source list for NC(Cc1cnc[nH]1)C(=O)O (stereo not given)?
growth inhibition (at 1.2 µM): inactive: -11%; growth inhibition (at 3.7 µM): inactive: 27%; growth inhibition (at 11.0 µM): active: 96%; growth inhibition (at 33.0 µM): active: 97%; growth inhibition (at 100.0 µM): active: 99%

Which results are given for FC1(F)SC2C(C1(F)F)C1(Cl)C(Cl)=C(Cl)C2(Cl)C1(Cl)Cl (stereo not given)?
growth inhibition (at 1.2 µM): inactive: 26%; growth inhibition (at 3.7 µM): active: 98%; growth inhibition (at 11.0 µM): active: 99%; growth inhibition (at 33.0 µM): active: 99%; growth inhibition (at 100.0 µM): active: 99%

With O=C1OC(C(Cl)(Cl)Cl)Sc2ccccc21 (stereo not given) as the molecule, how does the growth inhibition (at 1.2 µM) read?
The growth inhibition was inactive: 0%.

What about the growth inhibition (at 3.7 µM) of the same molecule?
The growth inhibition was inactive: 1%.

What about the growth inhibition (at 11.0 µM) of the same molecule?
Its growth inhibition is inactive: 10%.

And the growth inhibition (at 33.0 µM)?
Its growth inhibition is inactive: 42%.

What about the growth inhibition (at 100.0 µM) of the same molecule?
The growth inhibition was active: 75%.

What does the source list for O=[N+]([O-])c1cc([N+](=O)[O-])c2nsnc2c1?
growth inhibition (at 1.2 µM): inactive: -6%; growth inhibition (at 3.7 µM): inactive: 22%; growth inhibition (at 11.0 µM): active: 99%; growth inhibition (at 33.0 µM): active: 99%; growth inhibition (at 100.0 µM): active: 99%

For COc1cccc(C[N+](C)(CCCl)CCCl)c1[N+](=O)[O-], which growth inhibition (at 1.2 µM) is on record?
Its growth inhibition is inactive: 32%.

What about the growth inhibition (at 3.7 µM) of the same molecule?
The growth inhibition was inactive: 22%.

And the growth inhibition (at 11.0 µM)?
The growth inhibition was inactive: 20%.

What about the growth inhibition (at 33.0 µM) of the same molecule?
Its growth inhibition is inactive: 26%.

And the growth inhibition (at 100.0 µM)?
The growth inhibition was inactive: 41%.

For CC(C)c1nc(Nc2ccccc2)n(P(=O)(N(C)C)N(C)C)n1, which growth inhibition (at 1.2 µM) is on record?
Its growth inhibition is inactive: -42%.

What about the growth inhibition (at 3.7 µM) of the same molecule?
The growth inhibition was inactive: -29%.

What about the growth inhibition (at 11.0 µM) of the same molecule?
The growth inhibition was inactive: -23%.

And the growth inhibition (at 33.0 µM)?
Its growth inhibition is inactive: 33%.

And the growth inhibition (at 100.0 µM)?
Its growth inhibition is active: 91%.

With N#Cc1cc([N+](=O)[O-])cc([N+](=O)[O-])c1N as the molecule, how does the growth inhibition (at 1.2 µM) read?
The growth inhibition was inactive: 3%.

What about the growth inhibition (at 3.7 µM) of the same molecule?
Its growth inhibition is inactive: 1%.

What about the growth inhibition (at 11.0 µM) of the same molecule?
Its growth inhibition is inactive: 18%.

What about the growth inhibition (at 33.0 µM) of the same molecule?
The growth inhibition was inactive: 48%.

What about the growth inhibition (at 100.0 µM) of the same molecule?
The growth inhibition was active: 80%.
